# Yeast mating assay 1: variants of the scFv Ab-14

Data: MIT Lincoln Laboratory AlphaSeq set, Engelhart et al. 2022, doi:10.1038/s41597-022-01779-4, as distributed in FLAb.

Binding partner: SARS-CoV-2 spike HR2 peptide, sequence PDVDLGDISGINAS.

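Variants in AAYL50 differ from the parent at up to three CDR positions; double and triple changes were sampled at random. The assay is AlphaSeq: two haploid yeast populations carry antibody and antigen on their surface. The frequency of each diploid, read from paired DNA barcodes, reflects how well the two displayed proteins bind. Read counts were normalised to the haploid input and turned into Kd by a linear fit to BCL2-family pairs of known affinity, for each replicate. There are three technical replicates.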

The variants keep the heavy chain, the linker and the frameworks of Ab-14 (scFv order VH, three GGGGS repeats, VL).
VH: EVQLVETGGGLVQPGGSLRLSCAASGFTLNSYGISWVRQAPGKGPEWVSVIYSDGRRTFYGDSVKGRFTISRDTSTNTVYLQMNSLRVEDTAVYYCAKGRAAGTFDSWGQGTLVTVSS
VL: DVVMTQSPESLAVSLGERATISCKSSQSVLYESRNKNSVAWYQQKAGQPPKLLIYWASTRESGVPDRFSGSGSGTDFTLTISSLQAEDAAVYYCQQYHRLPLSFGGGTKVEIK

Changes read parent residue, position, new residue, counted from the first residue of the VL shown.
All variants listed here change L100 of the VL, counted from its first residue.
Kd is apparent (estimated from mating counts) and averaged on the log scale over replicates with a signal. Smaller is tighter.
A pair that was not seen in any replicate is written "no signal"; this usually means weak binding, but a binder can also be missed.
Empty control strains, which show no peptide, gave a signal in 18% of pairings with library AAYL50; the median was 15 µM and 95% of these signals were weaker than 970 nM. No background was subtracted.

* A57T/Y97L/L100K: 220 nM (3 of 3 replicates)
* S28C/Y31V/L100F: no signal (0 of 3 replicates)
* S28K/N37F/L100A: 6.0 µM (3 of 3 replicates)
* V29P/Y97M/L100H: 30 nM (3 of 3 replicates)
* L100R: no signal (0 of 3 replicates)
* K24R/S33Q/L100W: 14 nM (3 of 3 replicates)
* Y31N/L100H/S103C: no signal (0 of 3 replicates)
* K24Q/S25C/L100S: no signal (0 of 3 replicates)
* L100Q/P101S: 3.7 nM (3 of 3 replicates)
* L30Q/E61K/L100V: 48 nM (3 of 3 replicates)
* V39D/E61R/L100E: 230 µM (1 of 3 replicates)
* Q27I/A40E/L100R: 47 µM (2 of 3 replicates)
* K24Y/K36Y/L100M: 500 nM (3 of 3 replicates)
* S28E/H98Y/L100M: 18 nM (3 of 3 replicates)
* Q27M/S38D/L100V: no signal (0 of 3 replicates)
* K24P/L100T: 73 µM (1 of 3 replicates)
* E32D/Y97W/L100H: 230 nM (3 of 3 replicates)
* N35E/S58W/L100Y: 9.2 µM (2 of 3 replicates)
* K24P/L100I/L102D: 1.1 µM (1 of 3 replicates)
* S38V/Q96R/L100A: no signal (0 of 3 replicates)
* T59Y/L100W/L102A: no signal (0 of 3 replicates)
* Y31G/S38I/L100P: 23 µM (3 of 3 replicates)
* L30K/L100Y: 870 nM (2 of 3 replicates)
* R60D/S62N/L100Y: 9.9 µM (1 of 3 replicates)
* V39P/S62L/L100K: 61 µM (3 of 3 replicates)
* W56P/A57V/L100S: 3.3 µM (1 of 3 replicates)
* N35R/Q95I/L100Q: no signal (0 of 3 replicates)
* Y31L/S62A/L100V: 27 nM (3 of 3 replicates)
* S28V/Q96Y/L100P: 950 µM (1 of 3 replicates)
* N37K/L100Y: 21 nM (3 of 3 replicates)
* T59C/H98A/L100I: 71 nM (3 of 3 replicates)
* R34D/L100Y/S103K: 6.2 µM (1 of 3 replicates)
* Q27G/R34E/L100I: 5.8 nM (3 of 3 replicates)
* K24P/H98F/L100Y: no signal (0 of 3 replicates)
* L30F/Q96E/L100M: 11 nM (3 of 3 replicates)
* T59V/L100E/S103W: no signal (0 of 3 replicates)
* T59F/L100G: 190 nM (3 of 3 replicates)
* Q27R/L30D/L100S: 51 nM (3 of 3 replicates)
* S62M/L100S: no signal (0 of 3 replicates)
* E32G/S58A/L100Y: no signal (0 of 3 replicates)
* S33L/L100C/P101S: 3.7 µM (2 of 3 replicates)
* E32W/L100M: 380 nM (3 of 3 replicates)
* H98D/L100E/S103G: 48 µM (1 of 3 replicates)

The 5 strongest on average among those seen in every replicate, once more:

| changes | Kd | seen in |
|---|---|---|
| L100Q/P101S | 3.7 nM | 3/3 |
| Q27G/R34E/L100I | 5.8 nM | 3/3 |
| L30F/Q96E/L100M | 11 nM | 3/3 |
| K24R/S33Q/L100W | 14 nM | 3/3 |
| S28E/H98Y/L100M | 18 nM | 3/3 |